pIC50: −log10 of the molar value.
Organism: Homo sapiens
Test: Compound was evaluated for inhibition of ADP-induced human platelet aggregation.
Format: functional

pIC50: 3.74
Structure (SMILES): N=C(N)NCCC[C@H](N)C(=O)NCC(=O)N[C@@H](CC(=O)O)C(=O)N[C@@H](CO)C(=O)O
